Assay [1] concerns the target human muscarinic M1 receptor (Homo sapiens, UniProt P11229). Put plainly: Alphascreen Surefire phospho-ERK1/2 functional assay, M1. The following applies: CHO cells stably expressing human M1.
Assay [2] concerns the target human muscarinic M4 receptor (Homo sapiens, UniProt P08173). Put plainly: Alphascreen Surefire phospho-ERK1/2 functional assay, M4. The class given is cell-based. As to conditions: CHO cells stably expressing human M4.

Sequences of proteins named here, by UniProt entry; tags and fusion partners are left off.
UniProt P11229, whole entry: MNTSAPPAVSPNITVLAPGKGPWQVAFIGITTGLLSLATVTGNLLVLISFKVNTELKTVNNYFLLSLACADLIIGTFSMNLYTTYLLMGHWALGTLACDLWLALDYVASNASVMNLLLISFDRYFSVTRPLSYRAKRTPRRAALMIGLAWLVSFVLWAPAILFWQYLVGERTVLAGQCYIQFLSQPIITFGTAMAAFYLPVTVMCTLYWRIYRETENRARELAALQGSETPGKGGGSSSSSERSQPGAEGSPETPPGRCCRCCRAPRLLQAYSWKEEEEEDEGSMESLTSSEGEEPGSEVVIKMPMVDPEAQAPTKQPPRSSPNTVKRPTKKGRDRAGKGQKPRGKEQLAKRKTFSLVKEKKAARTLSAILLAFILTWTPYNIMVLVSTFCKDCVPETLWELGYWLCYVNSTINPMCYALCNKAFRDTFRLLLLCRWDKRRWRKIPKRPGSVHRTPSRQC
UniProt P08173, whole entry: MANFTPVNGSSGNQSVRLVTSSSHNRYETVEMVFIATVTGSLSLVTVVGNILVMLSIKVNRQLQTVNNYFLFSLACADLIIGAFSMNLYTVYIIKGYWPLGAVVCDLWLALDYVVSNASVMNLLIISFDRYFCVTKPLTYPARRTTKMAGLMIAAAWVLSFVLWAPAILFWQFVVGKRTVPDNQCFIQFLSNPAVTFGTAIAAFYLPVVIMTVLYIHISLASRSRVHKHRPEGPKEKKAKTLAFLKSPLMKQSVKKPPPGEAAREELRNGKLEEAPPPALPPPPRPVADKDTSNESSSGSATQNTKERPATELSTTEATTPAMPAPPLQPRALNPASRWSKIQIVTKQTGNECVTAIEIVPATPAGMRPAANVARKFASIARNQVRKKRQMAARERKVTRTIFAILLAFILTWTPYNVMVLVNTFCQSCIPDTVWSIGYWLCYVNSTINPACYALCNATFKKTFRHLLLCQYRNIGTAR

The source of these data is patent US11208396B2, “Oxime compounds as agonists of the muscarinic M1 and/or M4 receptor” (Heptares Therapeutics Limited, priority 2015, dated 2021).

Turning to `CCON=C(CC)C1CCN(C2CCCN(C(=O)OCC)CC2)CC1` (single isomer, unassigned), the “% Emax cf. ACh, M1” value in assay [1] (Emax compared with ACh) was 58%. In addition, the “pEC50 M1” value in assay [1] (agonist 5 min, 37° C.) is 6.3. In addition, the “% Emax cf. ACh, M4” value in assay [2] (Emax compared with ACh) came to 89%. For the same compound, the “pEC50 M4” value in assay [2] (agonist 5 min, 37° C.) is 7.0.
